According to publication PMC7429951 (Journal of Medicinal Chemistry, 2020):

Experiments:
in vitro [1] = settings: human, HepG2 cells (hepatocellular carcinoma)
in vitro [2] = settings: human, HEK293 cells (embryonal kidney)
in vitro [3] = settings: human, A549 cells (lung carcinoma)

Measured: IC50

O=C(CS)Nc1ccc(Cl)c(Cl)c1 [Compound 5, reference compound]
> 100 µM: all assays above
